Assay: Metabolic stability in human liver microsomes assessed as intrinsic clearance and mesured upto 60 mins in presence of NADPH
Assay type: ADME, Microsome
Details: read-out: CLH

microsomal CLint: 180 µL/min/mg
SMILES: O=C(O)Cc1ccccc1Nc1c(Cl)cccc1Cl [DICLOFENAC]
